1 compound from patent US10927110B2, “Cyano-subtituted heterocycles with activity as inhibitors of USP30” (MISSION THERAPEUTICS LIMITED, priority 2016, dated 2021) can be followed below.

By UniProt entry, the sequences of proteins in these tests, tags left out. Residues count along the entry.
UniProt Q70CQ3, 57-517 limits assumed: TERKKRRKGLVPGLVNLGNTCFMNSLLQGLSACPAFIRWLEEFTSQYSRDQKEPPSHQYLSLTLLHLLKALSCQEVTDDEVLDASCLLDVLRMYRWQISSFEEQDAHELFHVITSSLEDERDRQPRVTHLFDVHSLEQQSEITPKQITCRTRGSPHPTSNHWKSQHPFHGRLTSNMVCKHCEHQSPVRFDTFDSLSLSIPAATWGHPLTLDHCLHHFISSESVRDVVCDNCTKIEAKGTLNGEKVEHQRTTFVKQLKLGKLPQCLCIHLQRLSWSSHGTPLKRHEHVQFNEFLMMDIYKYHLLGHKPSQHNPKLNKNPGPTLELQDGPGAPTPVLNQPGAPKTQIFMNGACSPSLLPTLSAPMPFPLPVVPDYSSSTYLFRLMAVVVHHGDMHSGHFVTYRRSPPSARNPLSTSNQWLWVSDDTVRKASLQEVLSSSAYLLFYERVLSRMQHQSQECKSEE

In this experiment the target is USP30 (Homo sapiens (Human), UniProt Q70CQ3). In words: USP30 Biochemical IC50 Assay. Particulars: read-out: IC50 range; fluorescence polarisation, TAMRA labelled peptide linked to ubiquitin; 30 min pre-incubation, read after 2 h at room temperature. Here is the method: USP30 Biochemical IC50 Assay
Dilution plates were prepared at 21 times the final concentration (2100 μM for a final concentration of 100 μM) in 50% DMSO in a 96-well polypropylene V-bottom plate (Greiner #651201). A typical 8-point dilution series would be 100, 30, 10, 3, 1, 0.3, 0.1, […]. Reactions were performed in duplicate in black 384 well plates (small volume, Greiner 784076) in a final reaction volume of 21 μl. Either 1 μl of 50% DMSO or diluted compound was added to the plate. USP30 was diluted in reaction buffer (40 mM Tris, pH 7.5, 0.005% Tween 20, 0.5 mg/ml BSA, 5 mM beta-mercaptoethanol) to the equivalent of 0.05 μl/well and 10 μl of diluted USP30 was added to the compound. Enzyme and compound were incubated for 30 min at room temp. Reactions were initiated by the addition of 50 nM of TAMRA labelled peptide linked to ubiquitin via an iso-peptide bond as fluorescence polarisation substrate. Reactions were read immediately after addition of substrate and following a 2 h incubation at room temperature. Readings were performed on a Pherastar Plus (BMG Labtech). λ Excitation 540 nm; λ Emission 590 nm.

A word on the IC50: it is the concentration that gives 50% inhibition. Turning to `N#Cc1cccc(-c2cnc3[nH]c(C4(F)CCCN(C#N)C4)nc3c2)c1` (stereo not shown), the IC50 lay within 100 to 1000 nM.
